By UniProt entry, the sequences of proteins in these tests, tags left out. Residues count along the entry.
UniProt P22607, 23-806 limits assumed: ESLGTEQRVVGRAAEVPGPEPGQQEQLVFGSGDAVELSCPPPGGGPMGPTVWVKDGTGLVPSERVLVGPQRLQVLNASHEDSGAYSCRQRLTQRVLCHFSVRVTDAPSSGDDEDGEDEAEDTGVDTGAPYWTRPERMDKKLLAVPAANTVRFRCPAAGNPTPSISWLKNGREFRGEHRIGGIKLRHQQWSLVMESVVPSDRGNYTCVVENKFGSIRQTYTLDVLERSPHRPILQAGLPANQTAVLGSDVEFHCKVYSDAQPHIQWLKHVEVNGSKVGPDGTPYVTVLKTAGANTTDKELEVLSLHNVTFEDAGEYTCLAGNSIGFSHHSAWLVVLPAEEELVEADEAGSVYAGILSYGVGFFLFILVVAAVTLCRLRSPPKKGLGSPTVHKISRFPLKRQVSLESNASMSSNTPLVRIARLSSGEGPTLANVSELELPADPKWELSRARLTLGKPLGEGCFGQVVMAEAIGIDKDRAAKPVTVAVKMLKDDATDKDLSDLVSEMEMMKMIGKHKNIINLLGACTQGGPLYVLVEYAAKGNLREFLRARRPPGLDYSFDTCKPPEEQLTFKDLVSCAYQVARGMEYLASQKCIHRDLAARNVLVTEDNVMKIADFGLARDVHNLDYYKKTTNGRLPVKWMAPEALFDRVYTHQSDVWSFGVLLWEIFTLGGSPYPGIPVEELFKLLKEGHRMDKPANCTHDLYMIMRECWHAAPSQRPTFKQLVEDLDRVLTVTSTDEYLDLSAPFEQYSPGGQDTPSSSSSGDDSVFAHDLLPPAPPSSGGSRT
UniProt P11362, 22-822 limits assumed: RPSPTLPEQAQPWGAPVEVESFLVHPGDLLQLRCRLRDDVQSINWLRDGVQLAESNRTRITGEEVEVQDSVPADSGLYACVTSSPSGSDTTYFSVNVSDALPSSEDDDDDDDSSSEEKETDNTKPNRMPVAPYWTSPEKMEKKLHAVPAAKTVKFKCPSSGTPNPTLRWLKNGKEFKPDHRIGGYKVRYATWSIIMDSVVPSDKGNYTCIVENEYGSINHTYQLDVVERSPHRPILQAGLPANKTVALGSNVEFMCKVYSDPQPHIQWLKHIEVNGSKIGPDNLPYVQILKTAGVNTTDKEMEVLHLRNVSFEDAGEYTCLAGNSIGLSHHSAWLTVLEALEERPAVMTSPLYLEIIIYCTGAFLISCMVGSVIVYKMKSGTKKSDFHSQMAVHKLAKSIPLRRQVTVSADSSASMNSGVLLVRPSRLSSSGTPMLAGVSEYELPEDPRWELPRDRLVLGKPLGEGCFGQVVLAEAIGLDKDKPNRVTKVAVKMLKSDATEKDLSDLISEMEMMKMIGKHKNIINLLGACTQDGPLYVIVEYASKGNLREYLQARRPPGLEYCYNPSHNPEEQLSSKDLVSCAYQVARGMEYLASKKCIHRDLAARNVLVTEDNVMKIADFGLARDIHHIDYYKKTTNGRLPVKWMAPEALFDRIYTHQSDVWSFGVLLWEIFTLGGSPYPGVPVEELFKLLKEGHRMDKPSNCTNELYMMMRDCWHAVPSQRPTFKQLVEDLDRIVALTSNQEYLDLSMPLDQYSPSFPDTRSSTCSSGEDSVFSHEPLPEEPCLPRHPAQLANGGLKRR
UniProt P21802, 22-821 limits assumed: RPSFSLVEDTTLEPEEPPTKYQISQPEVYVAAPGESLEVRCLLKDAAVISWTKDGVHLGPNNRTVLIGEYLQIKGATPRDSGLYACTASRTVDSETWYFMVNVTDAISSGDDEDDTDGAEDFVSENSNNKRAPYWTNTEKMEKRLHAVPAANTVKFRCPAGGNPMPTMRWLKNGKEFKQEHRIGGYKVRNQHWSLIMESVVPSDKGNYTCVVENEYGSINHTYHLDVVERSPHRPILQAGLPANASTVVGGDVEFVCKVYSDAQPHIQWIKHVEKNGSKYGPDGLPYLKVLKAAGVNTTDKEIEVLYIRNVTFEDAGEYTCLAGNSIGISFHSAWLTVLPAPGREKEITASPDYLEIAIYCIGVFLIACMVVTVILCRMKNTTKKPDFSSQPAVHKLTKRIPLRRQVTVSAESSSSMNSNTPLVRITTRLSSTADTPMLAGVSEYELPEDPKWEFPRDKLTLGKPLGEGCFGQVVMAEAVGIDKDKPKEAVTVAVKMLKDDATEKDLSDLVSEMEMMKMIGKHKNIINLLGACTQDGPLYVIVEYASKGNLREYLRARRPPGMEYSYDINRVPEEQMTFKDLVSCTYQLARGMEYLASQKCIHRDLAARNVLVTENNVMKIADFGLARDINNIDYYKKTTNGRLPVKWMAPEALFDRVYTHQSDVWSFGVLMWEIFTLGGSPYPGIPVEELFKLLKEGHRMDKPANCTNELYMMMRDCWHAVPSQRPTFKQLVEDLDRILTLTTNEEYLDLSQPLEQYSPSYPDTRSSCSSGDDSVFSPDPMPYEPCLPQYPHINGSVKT

According to patent US11286248B2, “Pyrazine-2(1H)-ketone compound acting as FGFR inhibitor” (ZHANGZHOU PIEN TZE HUANG PHARMACEUTICAL CO., LTD., priority 2018, dated 2022):

Tests used:
Assay type in all cases: biochemical
FGFR3 = FGFR3 (Homo sapiens, UniProt P22607); test: 33P isotope-labeled kinase activity test (Reaction Biology Corp), wild-type FGFR3
human FGFR1 = human FGFR1 (Homo sapiens, UniProt P11362); test: 33P isotope-labeled kinase activity test (Reaction Biology Corp), wild-type FGFR1; conditions: read-out: IC50 (nM) FGFR1, 33P-ATP 5 μM, substrate pEY + Mn, 120 minutes at room temperature
FGFR2 = FGFR2 (Homo sapiens, UniProt P21802); test: 33P isotope-labeled kinase activity test (Reaction Biology Corp), wild-type FGFR2

COc1cc(OC)cc(-c2nc(-c3nc(-c4cnn(CCN5CCOCC5)c4C)cnc3N)cn(C)c2=O)c1
Selectivity FGFR1/3 (FGFR3; ratio of IC50 FGFR1 to IC50 FGFR3): 13
IC50 (FGFR3; read-out: IC50 (nM) FGFR3, wild-type kinase, 33P-ATP 30 μM, substrate pEY + Mn, 120 minutes at room temperature): 17.4 nM
IC50 (human FGFR1): 226 nM
Selectivity FGFR1/2 (FGFR2; ratio of IC50 FGFR1 to IC50 FGFR2): 7.59
IC50 (FGFR2; read-out: IC50 (nM) FGFR2, wild-type kinase, 33P-ATP 5 μM, substrate pEY + Mn, 120 minutes at room temperature): 29.8 nM
